# Measurements reported in patent publication US20260315609A1, “MIXED VASOPRESSIN RECEPTOR AGONIST-ANTAGONIST FOR TREATING END-STAGE LIVER DISEASE AND COMPLICATIONS ASSOCIATED THEREOF” (FERRING B.V., priority 2022, published 2026).
# Test system: skin blood flow (SBF)
# Assay: Skin blood flow (SBF), laser Doppler, anesthetized Wistar rats, IV infusion
# Assay type: in vivo, rat
# Method: This study was performed over multiple experiments using a total of 48 adult male Wistar rats. Compounds were dissolved in 2.5% dextrose and 0.45% sodium chloride on the day of the study, at concentrations allowing administration of the desired dose at an infusion rate of 20 μL/kg/min (0.15-150 pmoL/μL). Compounds were infused via an IV catheter at six sequentially increasing doses. A group of vehicle-administered animals received vehicle throughout the study and data were reported from intervals timed analogously with the dose-response in compound 1-administered animals.
# On the day of experimentation animals were anesthetized and instrumented. […] Ventilation was initiated, and baseline readings for the primary parameter of skin blood flow (SBF) were recorded. Readings for the secondary parameters were also recorded: (1) blood lactate concentration, (2) mean arterial pressure (MAP), and (3) blood pH. Data collection was performed continuously for SBF and MAP using NOTOCORD-hem™ (Instem), and blood samples were taken at each compound dose and immediately analyzed using an i-STAT® meter.
# After the final dose administration, animals were euthanized and a final SBF measurement was recorded to detect any signal from the flow probe after the animal's heart stopped beating to control for a signal not attributed to blood flow. […]
smiles,measurement,value
"NC(=O)CC[C@@H]1NC(=O)[C@H](Cc2ccccc2)NC(=O)[C@H](Cc2ccc(O)cc2)NC(=O)[C@@H](N)CSSC[C@@H](C(=O)N2CCC[C@H]2C(=O)N[C@@H](CCCN=C(N)N)C(=O)NCC(N)=O)NC(=O)[C@H](CC(N)=O)NC1=O [AVP, arginine vasopressin]",SBF Emax,91.8%
